From BindingDB's records for doi:10.1038/nchembio.2134 (University of Pennsylvania, 2016)
pIC50, pKi: −log10 of the molar value.

What was measured:
[1] = target: T1, Histone deacetylase 6 [440-798] (Danio rerio, UniProt F8W4B7); assay: HDAC6 fluorescence anisotropy assay; conditions: 25 °C
T1 construct: 440-798
T1 sequence (F8W4B7 whole entry): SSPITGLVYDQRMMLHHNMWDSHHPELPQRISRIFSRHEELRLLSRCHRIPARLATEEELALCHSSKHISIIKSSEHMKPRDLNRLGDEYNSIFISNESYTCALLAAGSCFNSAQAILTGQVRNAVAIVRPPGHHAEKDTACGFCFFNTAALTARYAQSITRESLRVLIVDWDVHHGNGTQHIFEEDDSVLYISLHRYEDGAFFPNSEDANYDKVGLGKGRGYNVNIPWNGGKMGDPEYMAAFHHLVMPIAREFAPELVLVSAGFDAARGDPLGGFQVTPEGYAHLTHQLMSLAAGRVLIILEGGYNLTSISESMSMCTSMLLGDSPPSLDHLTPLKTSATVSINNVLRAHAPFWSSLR

[2] = target: T2, Histone deacetylase 6 [60-420] (Danio rerio, UniProt F8W4B7); assay: HDAC6 fluorescence anisotropy assay; conditions: 25 °C
T2 construct: 60-420
T2 sequence (F8W4B7 whole entry): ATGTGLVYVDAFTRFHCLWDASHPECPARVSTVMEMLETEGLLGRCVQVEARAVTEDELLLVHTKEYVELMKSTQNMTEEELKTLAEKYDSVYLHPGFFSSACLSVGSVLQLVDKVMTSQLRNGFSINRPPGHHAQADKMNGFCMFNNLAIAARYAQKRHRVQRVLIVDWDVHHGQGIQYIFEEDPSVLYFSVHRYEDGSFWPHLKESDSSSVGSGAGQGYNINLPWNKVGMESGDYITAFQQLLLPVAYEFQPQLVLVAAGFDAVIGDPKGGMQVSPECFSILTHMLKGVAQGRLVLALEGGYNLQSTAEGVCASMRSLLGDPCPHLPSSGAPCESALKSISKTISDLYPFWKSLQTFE

`C/C(=C\C(C)/C=C/C(=O)NO)C(=O)c1ccc(N(C)C)cc1` (centres undefined) [TSA] showed a pIC50 [1] of 8.85, a pKi [1] of 9.10 and a pIC50 [2] of 8.15. For the same compound, the pKi [2] was 8.32.
